Assay results taken from patent publication US9289381B2, “Stabilization and storage of biological pharmaceutical compositions” (The University of North Carolina at Charlotte, priority 2009, dated 2016).
pEC50: −log10 of the molar value.

Columns and labels:
[1] = tested on: J774 murine macrophage cell line; assay: Resazurin metabolism (cell viability) assay
[2] = Miscibility with water and complemented media
[3] = Osmolality by vapor pressure osmometer, osmotic coefficient; format: physicochemical

Q: With “Choline bis(2,4,4-trimethyl pentyl) phosphinate” as the substance, how does the “Log EC50, μM (Dose Response Model)” value ([1]; J774, 48 h, value is the logarithm of EC50, error of last digit in parentheses, equation 1) read?
A: The value was 2.39 (2) μM.

Q: What about the pEC50 ([1]; J774, 48 h exposure) of the same substance?
A: Its pEC50 is no less than 3.60.

Q: What about the solution behaviour ([2]; 1 mM stock solution) of the same substance?
A: The solution behaviour was “miscible with water”.

Q: What about the solution behaviour ([2]; 10 and 100 mM, 4° C.) of the same substance?
A: Its solution behaviour is “appeared to precipitate”.

Q: What about the solution behaviour ([2]; 10 and 100 mM, 25° C. and 37° C.) of the same substance?
A: The solution behaviour was “form an emulsion or dispersion”.

Q: And the “osmotic coefficient (φ)” value ([3]; 100 mM in water, 1 indicates 100% dissociation)?
A: Its value is 0.5.

Q: And the “Osmotic Coef., φ in H2O” value ([3]; 100 mM solutions in deionized water)?
A: Its value is 0.48.
